# Experimental data as given in patent US20070299013.
# Biological target: factor V^2K2F, quadruple mutant, recombinant human factor V with the mutations D695→K, Y696→F, D697→K, and Y698→F (UniProt P12259)
substance,measurement,value
human thrombin,"cofactor activity in prothrombinase assay after incubation of the procofactor with thrombin (10 nM, 15 min, 37 C); wild type ~1800 mOD/min",≦20 mOD/min
